Reference: patent US20210145806A1, “Methods of Treating Brain Cancer and Related Diagnostic Methods” (Emory University, priority 2019, published 2021)

Legend:
[1] = tested on: SHH activated MB cells (DAOY, UW228 and ONS-76); assay: Proliferation of SHH activated human MB cells (mean/composite of all lines); conditions: read-out: IC50, inhibition of proliferation
[2] = tested on: SHH-activated MB cells (DAOY, UW228 and ONS-76); assay: Soft agar colony formation assay (CFA); conditions: p<0.01 compared to vehicle control (DMSO); unit not given

Compound	pIC50 [1]	concentration at which colony formation is inhibited [2]
CC(NC(=O)C(C#N)=Cc1cccc(Br)n1)c1ccccc1 (centres unmarked) [WP1066, 3-(6-bromopyridin-2-yl)-2-cyano-N-(1-phenylethyl)acrylamide]	5.74	
O=c1c(O)c(-c2ccc(O)c(O)c2)oc2cc(O)ccc12 [fisetin, 2-(3,4-dihydroxyphenyl)-3,7-dihydroxy-4H-chromen-4-one]		≥ 6

pIC50: −log10 of the molar value.
